Drawing on patent US20190300576A1, this text covers Kd for one substance.

A word on the Kd: it is the equilibrium constant for the complex coming apart.

This test has as its target monoclonal ANTI-FLAG M2 antibody. Put plainly: BLI. (In general: In BLI a coated tip is dipped into the sample, and binding shifts an interference pattern.)

Regarding Flag peptide (57a), the Kd was determined as 15 nM.
